Experimental findings from patent publication US5028411A, “Pharmaceutical compositions” (priority 1984, dated 1991) are described below.

A short description of the data set: Ksol, ability to solubilise iron(III) hydroxide. As to conditions: must be >0 to solubilise iron(III) hydroxide. Format: physicochemical. From the text:
In order to solubilise iron(III) hydroxide, log Ksol must be greater than 0.

As to apotransferrin, the “log Ksol” value is recorded as 6.0.
